The experiment has as its target human chemokine receptor CCR3 (Homo sapiens, UniProt P51677). As to the kind of experiment: CCR3 receptor binding assay (SPA, 125I-eotaxin-1 displacement, hCCR3-C1 K562 cell membranes). The settings on record: human Eotaxin-1 at human CCR3-Rezeptor; for CCR3 % inh @ 1 μM: 1 μM test compound; for Ki: read-out: CCR3 Ki, dose range 0.1 to 10000 nM.

Sequences of proteins named here, by UniProt entry; tags and fusion partners are left off.
UniProt P51677, whole entry: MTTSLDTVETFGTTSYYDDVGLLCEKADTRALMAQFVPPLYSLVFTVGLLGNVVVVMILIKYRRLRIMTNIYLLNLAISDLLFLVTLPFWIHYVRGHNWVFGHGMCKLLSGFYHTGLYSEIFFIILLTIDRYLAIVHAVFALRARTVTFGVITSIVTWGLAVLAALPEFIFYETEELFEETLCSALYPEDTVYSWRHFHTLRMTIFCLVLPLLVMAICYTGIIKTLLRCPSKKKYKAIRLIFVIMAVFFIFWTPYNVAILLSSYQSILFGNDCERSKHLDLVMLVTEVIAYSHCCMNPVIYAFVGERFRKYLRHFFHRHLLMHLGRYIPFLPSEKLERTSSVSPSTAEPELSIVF

By Ki is commonly meant a dissociation constant, usually derived from enzyme kinetics or from competition with a known ligand. As for `Cc1cc(CN2C3CCC2CC(N2C(=O)CC[C@@H]2C(=O)Nc2ccccc2)C3)ccc1Cl` (stereo partly shown), the “CCR3 % inh @ 1 μM” value turned out to be 81% and the Ki was 223 nM.
Taken in the same sequence, the figures for `Cc1cc(C(=O)N(C)C)cc(NC(=O)[C@H]2CCC(=O)N2C2CCN(Cc3ccc(Br)c(C)c3)CC2)n1` were 99% and 6 nM.
Taken in the same sequence, the figures for `CCCc1nc(NC(=O)[C@H]2CCC(=O)N2C2CCN(Cc3ccc(Cl)c(C)c3)CC2)sc1C(=O)N(C)C` were 100% and 5 nM.
Take `Cc1cc(CN2CCC(N3C(=O)CC[C@@H]3C(=O)Nc3cc(C(=O)N4CCOCC4)cc(-c4nnnn4C)c3)CC2)ccc1Cl`: the “CCR3 % inh @ 1 μM” value was determined as 99% and the Ki stood at 4 nM.
Turning to `Cc1cc(CN2C3CCC2CC(N2C(=O)CC[C@@H]2C(=O)Nc2cccc(C(=O)N(C)C)c2)C3)ccc1Cl` (stereo partly shown), the “CCR3 % inh @ 1 μM” value is 87% and the Ki amounted to 153 nM.

These data come from patent US8653075B2, “Therapeutic methods employing substituted piperidines which are CCR3 antagonists” (Boehringer Ingelheim International GmbH, priority 2009, dated 2014).
